From patent publication US20260055126A1, “SMALL MOLECULE COMPOUNDS WITH PHOSPHORYLATED ARYL STRUCTURES AND USE THEREOF” (HANGZHOU PHECDAMED CO., LTD., priority 2022, published 2026)
Several values for one entry are separate records, joined by “and”; a condition that tells them apart may be missing. Identical values can stand only once.

The chains behind the UniProt entries cited, without tags or fusion partners. Residues count along the entry.
UniProt Q99594, 218-435: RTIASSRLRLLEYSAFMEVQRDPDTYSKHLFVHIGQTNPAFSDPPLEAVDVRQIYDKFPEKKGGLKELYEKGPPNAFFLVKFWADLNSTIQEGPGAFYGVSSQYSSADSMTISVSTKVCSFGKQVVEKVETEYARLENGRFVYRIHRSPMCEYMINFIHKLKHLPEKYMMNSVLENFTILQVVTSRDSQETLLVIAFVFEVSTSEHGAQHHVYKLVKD
UniProt Q15561, 217-434: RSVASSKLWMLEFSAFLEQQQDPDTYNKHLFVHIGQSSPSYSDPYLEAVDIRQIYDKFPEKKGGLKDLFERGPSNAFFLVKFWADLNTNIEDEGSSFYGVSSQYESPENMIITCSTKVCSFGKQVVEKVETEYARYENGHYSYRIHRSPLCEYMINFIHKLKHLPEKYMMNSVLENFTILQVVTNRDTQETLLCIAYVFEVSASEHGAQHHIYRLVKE
UniProt Q15562, 218-447: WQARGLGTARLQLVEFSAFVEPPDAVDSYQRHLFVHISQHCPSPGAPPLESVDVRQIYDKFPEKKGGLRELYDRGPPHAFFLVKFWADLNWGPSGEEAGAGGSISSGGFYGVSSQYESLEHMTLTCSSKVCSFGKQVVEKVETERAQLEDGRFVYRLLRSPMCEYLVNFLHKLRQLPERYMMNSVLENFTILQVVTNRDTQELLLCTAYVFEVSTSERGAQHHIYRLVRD

Columns and labels:
TEAD family proteins = experiment: Thermal shift assay, summary over all TEAD subtypes; assay type: binding; conditions: summary of Table 1
Protocol: (§1) The ability of the compounds to increase the melting point of purified recombinant TEAD1/2/3/4 proteins is tested using a thermal shift assay. The strength of the compound's binding to the protein and the selectivity of the compound's binding to the four TEAD subtypes are evaluated by calculating the melting point shift ΔTm−° C. The larger the ΔTm value, the stronger the compound's ability to stabilize the protein, reflecting its stronger binding ability. Based on the Δ Tm value, the ability of the compound to bind to the TEAD protein is divided into four levels: ++++, +++, ++, +.
(§2) Test method of protein melting point curve: 10 μL of the protein melting point curve experimental system (10 μM TEAD protein, 50 μM test compound, SYPRO® orange (55692, sigma)) is prepared in a 384-well fluorescence quantitative PCR plate according to the following system, and reacted at 4° C. in the dark for 20 minutes. On-machine reaction: ABI QuantStudio Dx fluorescence quantitative PCR instrument; program: from 25° C. to 80° C., increasing the temperature at a rate of 0.05° C./s, and reading the fluorescence channel signal of the corresponding wavelength of SYPRO® orange every second.

[1] = system: recombinant TEAD1 protein (194-411, Uniprot ID: P28347); experiment: Thermal shift assay (protein melting point curve), TEAD1; assay type: binding; design: key: the ability of the compound to bind to the TEAD protein is divided into four levels: ++++, +++, ++, +; the ability of the compound to bind to the TEAD protein is divided into four levels: ++++, +++, ++, +; the ability of the compound to bind to the TEAD protein is divided into four levels: ++++, +++, ++, +; the ability of the compound to bind to the TEAD protein is divided into four levels: ++++, +++, ++, +; conditions: 10 μM TEAD protein, 50 μM test compound
Protocol: as §1, §2

[2] = biological target: recombinant TEAD3 protein (218-435, Uniprot ID: Q99594) (Homo sapiens (Human), UniProt Q99594); experiment: Thermal shift assay (protein melting point curve), TEAD3; assay type: binding; conditions: 10 μM TEAD protein, 50 μM test compound
Protocol: as §1, with “The larger the ΔTm value, the stronger the compound's ability to stabilize the protein, reflecting its stronger binding ability.” left out
as §2

[3] = In vitro liver microsome stability, rat; assay type: in vitro ADME
Protocol: (§3) Testosterone is selected as the positive reference compound. The specific method is as follows:
(§4) Preparing 0.1MK3 PO4 (pH 7.4) buffer and 3×NADPH stock solution (6 mM, 5 mg/mL), and preheating in a 37° C. water bath; preparing spiking solution of tested compound and control compound: adding 5 μL compound stock solution (10 mM) to 95 μL acetonitrile; preparing 1.5 μM spiking solution in microsomes (0.75 mg/mL): add 1.5 μL spiking solution and 18.75 μL liver microsome solution (20 mg/mL) to 479.75 μL K3PO4 buffer; taking 30 μL spiking solution in microsomes and adding it to the multiwell plate, and incubating at 37° C. for 5 min; adding 15 μL of NADPH stock solution to each well, starting to react, and timing; adding 150 μL of acetonitrile solution containing IS at 0 min, 5 min, 15 min, 30 min, 45 min and 60 min respectively to terminate the reaction; after 10 min of oscillation, centrifuging the reaction at 6000 rpm for 15 min; taking 80 μL of supernatant from each well for LC/MS detection and calculating Ti/2.
(§5) Liver microsomes of mice, rats, dogs, and human used in the experiment are purchased from Xenotech.

[4] = In vitro liver microsome stability, mouse; assay type: in vitro ADME; conditions: for metabolic stability: mouse liver microsome environment; for mouse half-life: mouse liver microsomes
Protocol: as §3, §4, §5

[5] = In vitro liver microsome stability, dog; assay type: in vitro ADME
Protocol: as §3, §4, §5

[6] = biological target: recombinant TEAD4 protein (217-434, Uniprot ID: Q15561) (Homo sapiens (Human), UniProt Q15561); experiment: Thermal shift assay (protein melting point curve), TEAD4; assay type: binding; design: key to the marks not given beside the values; conditions: 10 μM TEAD protein, 50 μM test compound
Protocol: as §1, with “The larger the ΔTm value, the stronger the compound's ability to stabilize the protein, reflecting its stronger binding ability.” left out
as §2

[7] = In vitro liver microsome stability, human; assay type: in vitro ADME; conditions: for metabolic stability: human liver microsome environment; for human half-life: human liver microsomes
Protocol: as §3, §4, §5

[8] = biological target: recombinant TEAD2 protein (218-447, Uniprot ID: Q15562) (Homo sapiens (Human), UniProt Q15562); experiment: Thermal shift assay (protein melting point curve), TEAD2; assay type: binding; conditions: 10 μM TEAD protein, 50 μM test compound
Protocol: as §1, with “The larger the ΔTm value, the stronger the compound's ability to stabilize the protein, reflecting its stronger binding ability.” left out
as §2

Caco-2 cells = experiment: Permeability test on Caco2 cells; assay type: in vitro ADME; conditions: for Papp average value: n = 2; for Papp: single replicate
Protocol: After resuscitation, the Caco-2 cells are transferred to a conventional culture dish and cultured in a high-glucose DMEM medium (containing 10% FBS) at 37° C. and 5% CO2 in an incubator. When the cells cover 80% to 95% of the bottom of the dish, they are digested with trypsin containing 0.25% EDTA to disperse them into a single cell suspension, and the cell concentration is determined using a cell counter, after that, the concentration of the cell suspension is adjusted to 2 to 2.5×10^5/mL with fresh culture medium and inoculated into a Transwell polycarbonate membrane 12-well plate, the fresh culture medium is replaced every two days in the first two weeks and once a day in the last week, the culture is continued for 19 to 21 days to obtain a fully differentiated single cell layer.

Compound | binding ability to each subtype of TEAD family proteins (TEAD family proteins) | Δ T m (TEAD1) [1] | Δ T m (TEAD3) [2] | metabolic stability [4] | mouse half-life [4] | metabolic stability [7] | human half-life [7] | Δ T m (TEAD2) [8] | also measured
Cc1nc(-c2cc(P(C)(C)=O)ccc2Oc2ccc(C(F)(F)F)cc2)no1 [Compound 6] | good binding abilities | ++++ | +++ | – | – | – | – | – | –
CP(C)(=O)c1ccc(Nc2ccc(C(F)(F)F)cc2)c(-c2nccc(OC3COC3)n2)c1 [Compound 8] | good binding abilities | ++++ | ++ | good metabolic stabilities | 1.26 h | good metabolic stabilities | 1.97 h | ++ | metabolic stability ([3]; rat liver microsome environment): good metabolic stabilities; rat half-life ([3]; rat liver microsomes): 2.62 h; metabolic stability ([5]; dog liver microsome environment): good metabolic stabilities; dog half-life ([5]; dog liver microsomes): 2.95 h; Δ T m (TEAD4) [6]: ++++; Papp average value (Caco-2 cells; AP→BL): 7.80 10^−6 cm/s; Papp (Caco-2 cells; AP→BL): 6.90 10^−6 cm/s and 8.70 10^−6 cm/s; Papp average value (Caco-2 cells; BL→AP): 50.6 10^−6 cm/s; Papp (Caco-2 cells; BL→AP): 52.7 10^−6 cm/s and 48.5 10^−6 cm/s; intestinal permeability (Caco-2 cells; Caco2 cell model): high intestinal hypertonicity
O=P1(c2ccc(Nc3ccc(C(F)(F)F)cc3)c(-c3ncccn3)c2)CC(c2ccccn2)C1 (stereo not shown) [Compound 22] | good binding abilities | +++ | – | – | – | – | – | – | –
CP(C)(=O)c1ccc(Nc2ccc(C3CC3)cc2)c(-c2nccc(OC3COC3)n2)c1 [Compound 27] | – | ++++ | + | – | – | – | – | ++ | –
COc1ccc(Nc2ccc(P(C)(C)=O)cc2-c2nccc(OC3COC3)n2)cc1 [Compound 28] | – | ++++ | + | good metabolic stabilities | > 3.1 h | good metabolic stabilities | > 3.1 h | ++ | –
CSc1ccc(Nc2ccc(P(C)(C)=O)cc2-c2nccc(OC3COC3)n2)cc1 [Compound 29] | – | ++++ | + | – | – | – | – | ++ | –
CP(C)(=O)c1ccc(NC23CC4CC(CC(C4)C2)C3)c(-c2nccc(OC3COC3)n2)c1 [Compound 31] | – | ++++ | + | – | – | – | – | + | –
C=CP(=O)(C=C)c1ccc(Nc2ccc(C(F)(F)F)cc2)c(-c2cn(C)cn2)c1 [Compound 68] | good binding abilities | ++++ | – | good metabolic stabilities | > 3.1 h | good metabolic stabilities | > 3.1 h | – | –
Cn1cnc(-c2cc(P(C)(C)=O)nnc2Nc2ccc(C(F)(F)F)cc2)c1 [Compound 73] | good binding abilities | ++++ | – | – | – | – | – | – | –
Cn1cnc(-c2cc(P(C)(C)=O)ccc2Nc2ccc(S(F)(F)(F)(F)F)cc2)c1 [Compound 75] | good binding abilities | ++++ | – | – | – | – | – | – | –
